# Assay results taken from PubChem BioAssay AID1030 (National Center for Advancing Translational Sciences (NCATS), 2008).
# The chains behind the UniProt entries cited, without tags or fusion partners. Where a name states a change or a piece, a line headed by the entry shows the natural chain unless it says otherwise.
# UniProt P00352: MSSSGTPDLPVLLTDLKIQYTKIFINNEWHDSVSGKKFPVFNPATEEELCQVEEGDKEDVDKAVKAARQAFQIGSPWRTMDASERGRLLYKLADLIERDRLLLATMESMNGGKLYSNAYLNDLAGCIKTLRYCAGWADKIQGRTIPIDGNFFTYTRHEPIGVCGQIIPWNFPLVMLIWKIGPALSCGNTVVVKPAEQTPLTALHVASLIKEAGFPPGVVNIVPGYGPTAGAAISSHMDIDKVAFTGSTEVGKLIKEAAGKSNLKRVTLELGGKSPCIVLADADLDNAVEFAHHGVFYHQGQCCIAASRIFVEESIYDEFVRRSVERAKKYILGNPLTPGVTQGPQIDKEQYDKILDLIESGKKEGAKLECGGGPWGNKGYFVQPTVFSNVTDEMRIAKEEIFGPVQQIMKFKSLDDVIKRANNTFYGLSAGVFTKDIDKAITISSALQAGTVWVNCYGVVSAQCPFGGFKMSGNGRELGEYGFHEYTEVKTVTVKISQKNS
# “And” between values parts separate entries of the source, which are not always exact repeats. Equal values may be shown once. The entries are a selection whose mix differs from that of the whole data set. Results filed as inconclusive are left out. The source made the active and inactive calls. The call rests on the fitted dose curve; in most records, active means well fitted inhibition curve with a large enough effect (not every such curve was filed as active); inconclusive means small, poorly fitted or top-dose-only effect, or another doubt; inactive means no such curve, though single readings can be large or run the other way.
# Molecular target: Aldehyde dehydrogenase 1A1 (Homo sapiens) (UniProt P00352)
# Test: qHTS Assay for Inhibitors of Aldehyde Dehydrogenase 1 (ALDH1A1);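 further: plate controls were no enzyme wells and a reference inhibitor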
# Conditions: Purified ALDH1A1, NADH fluorescence, propionaldehyde substrate
compound,measurement,setting,value
Cc1cc(NS(=O)(=O)c2ccc(N)cc2)no1,"activity, negative = inhibition",at 20.9 µM (top of the series),inactive: 8.02%
same,"activity, negative = inhibition",at 75.3 µM (top of the series),inactive: 3.91% and inactive: 4.8%
